Measured values: PubChem BioAssay AID1845224 (National Center for Advancing Translational Sciences (NCATS), 2023)
The entries are a selection whose mix differs from that of the whole data set. Records with an inconclusive call do not appear. Activity calls are given as the source filed them. The call rests on the fitted dose curve; in most records, active means well fitted curve in the direction sought with a large enough effect; inconclusive means small, poorly fitted or top-dose-only effect, or another doubt; inactive means no such curve, though single readings can be large or run the other way.

Test system: NanoLuc luciferase (engineered Oplophorus gracilirostris luciferase)
Assay: Confirmatory Nanoluciferase (NLuc) qHTS assay for identification of artifact compounds. Further: % of control where 0% means no effect.
Settings: secreted NLuc in S16 cell medium, luminescence, 5 min; at 39 µM (top of the series)
Source text: PI: Alexander Tropsha Ph.D. UNC Eshelman School of Pharmacy University of North Carolina, Chapel Hill, North Carolina Hits from high-throughput screening (HTS) of chemical libraries are often false positives due to their interference with the assay detection technology. In response to this problem, we generated the largest publicly available library of chemical liabilities and developed a free webtool to predict HTS artifacts, both of which are described herein. More specifically, we generated, curated, and integrated HTS datasets for thiol reactivity, redox activity, and luciferase (firefly and nano) activity. Using these curated datasets, we developed and validated several Quantitative Structure-Interference Relationship (QSIR) models to predict nuisance behavior. […]
PROTOCOL TABLE SEQUENCE No. (e.g., 1, 2, 3, etc.); PARAMETER (e.g., Cells, Incubation, Reagent, etc.); VALUE; DESCRIPTION. […] 6; Detection; Luminescence, ViewLux microplate reader. […] 2 uL of NLuc substrate (1:100 in Nano-Glo luciferase buffer; Nano-Glo luminescence assay, Promega, Madison, WI) was dispensed for a final assay volume of 4 uL. […] Samples were read for luminescence on a ViewLux CCD imager (PerkinElmer). […]

Structure (SMILES): [NH4+].[O-][Cl+3]([O-])([O-])[O-]
- activity change, negative = inhibition: inactive: 6.24%
